Source: ChEMBL document CHEMBL5108009, “Positron Emission Tomography (PET) Imaging Tracers for Serotonin Receptors” (J Med Chem, 2022)

Sequences of proteins named here, by UniProt entry; tags and fusion partners are left off.
UniProt P28222, whole entry: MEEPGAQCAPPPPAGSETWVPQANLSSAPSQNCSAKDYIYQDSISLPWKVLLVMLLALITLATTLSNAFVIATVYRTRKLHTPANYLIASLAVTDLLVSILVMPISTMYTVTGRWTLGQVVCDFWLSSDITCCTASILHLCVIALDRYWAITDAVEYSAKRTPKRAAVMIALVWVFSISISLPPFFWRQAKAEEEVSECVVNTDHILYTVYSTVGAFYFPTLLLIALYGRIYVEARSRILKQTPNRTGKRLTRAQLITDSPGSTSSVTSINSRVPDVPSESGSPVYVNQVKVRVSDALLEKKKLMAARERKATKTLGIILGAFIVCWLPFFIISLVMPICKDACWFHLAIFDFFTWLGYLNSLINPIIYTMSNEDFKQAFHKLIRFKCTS

Target: 5-hydroxytryptamine receptor 1B (Homo sapiens, UniProt P28222)

## CN(C)[C@@H]1CCc2[nH]c3ccc(NC(=O)c4ccc(F)cc4)cc3c2C1
  Ki: > 500 nM
